System: Oct4 in adult human fibroblasts
Assay: Effect of BMP-2 on Oct4 expression with FGF2
Format: cell-based
Conditions: BMP-2 1 ng/ml, FGF2 4 ng/ml
Experimental: Primary adult human dermal fibroblasts from connective tissue isolated from tissue biopsy from a below knee amputation of a person were received from ATCC(CRL-2352) at passage 2. Cells were cultured in medium consisting of DMEM:Ham's F12 ([…], MediaTech) with 10% Fetalclone III (Hyclone, Logan, Utah). The DMEM (without L-Gln or phenol red) was supplemented with 4 mM fresh L-Gln (MediaTech) prior to use. Cultures were carried out in a 37° C. incubator in a humidified environment of 5% CO2, 5% O2, and 90% N2. The number of population doublings calculated as log2. Cells were seeded at 100,000 cells per T25 flask at each passage (Falcon). When used, human recombinant FGF2 (Chemicon or Protide) and BMP-2 (R&D Systems) was supplemented into medium at 4 ng/ml and 1 ng/ml respectively. Human muscle derived fibroblasts were derived from surplus muscle tissue from the calf flexor muscle used for a surgical knee repair in an adult. Tissue was rinsed in Leibowitz L-15 medium (MediaTech) containing 10 μg/ml gentamicin (Invitrogen) and 2.5 μg/ml fungizone (Hyclone) and minced using a sterile scalpel and digested with 1800 units/ml collagenase Type IV for 1 hour at 37° C. Cell lines were established by culture at 5% O2 from the beginning and working stocks cryopreserved at passage 2. […]

B1: BMP-2: BMP-2 (R&D Systems) supplemented into medium at 1 ng/ml (protein, UniProt P12643 283-396, looked up)
Bone morphogenetic protein 2: QAKHKQRKRLKSSCKRHPLYVDFSDVGWNDWIVAPPGYHAFYCHGECPFPLADHLNSTNHAIVQTLVNSVNSKIPKACCVPTELSAISMLYLDENEKVVLKNYQDMVVEGCGCR
- effect on expression of Oct4 with FGF2: inhibitory effect

From US9290740B2, “Use of basic fibroblast growth factor in the de-differentiation of animal connective tissue cells” (Worcester Polytechnic Institute, priority 2008, dated 2016)
